Data set [1] in a line: immunoblot of total HLA-DRB1 protein. As to conditions: glycan changed form; control: DMSO. For orientation: Immunoblotting shows a protein as a band on a membrane.
The nature of data set [2]: flow cytometry of cell surface HLA-DRB1, melanoma lines. As to conditions: glycan changed form; control: DMSO. (In general: A flow cytometer gives signals particle by particle.)

B1: HLA-DRB1: 250 µM FUTi (2F-peracetyl-fucose) (protein)
parent chain: MVCLKLPGGSCMTALTVTLMVLSSPLALSGDTRPRFLWQPKRECHFFNGTERVRFLDRYFYNQEESVRFDSDVGEFRAVTELGRPDAEYWNSQKDILEQARAAVDTYCRHNYGVVESFTVQRRVQPKVTVYPSKTQPLQHHNLLVCSVSGFYPGSIEVRWFLNGQEEKAGMVSTGLIQNGDWTFQTLVMLETVPRSGEVYTCQVEHPSVTSPLTVEWRARSESAQSKMLSGVGGFVLGLLFLGAGLFIYFRNQKGHSGLQPTGFLS
With B1, the expression_or_secretion result in data set [1] was “no change”. Besides, the localisation_or_trafficking result in data set [2] is “decreases”.

B2: HLA-DRB1: 250 µM l-fuc (protein)
parent chain: B1 parent chain
Take B2: in data set [1], the expression_or_secretion result is listed as “no change”. Also, the localisation_or_trafficking entry in data set [2] is “increases”.
